Reference: patent US10189836B2, “Therapeutic compounds, compositions and methods of use thereof” (Genentech, Inc., priority 2015, dated 2019)

Chains of the proteins cited; added tags and fusions are not shown. Residues count along the entry.
UniProt O60674, 849-1124: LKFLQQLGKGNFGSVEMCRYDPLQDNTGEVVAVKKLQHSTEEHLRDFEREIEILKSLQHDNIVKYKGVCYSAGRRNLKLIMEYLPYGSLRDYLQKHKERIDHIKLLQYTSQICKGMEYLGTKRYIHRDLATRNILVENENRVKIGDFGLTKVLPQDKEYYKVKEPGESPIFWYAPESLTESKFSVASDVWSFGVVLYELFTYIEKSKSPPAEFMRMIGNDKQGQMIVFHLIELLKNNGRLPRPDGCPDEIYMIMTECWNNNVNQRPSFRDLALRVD
UniProt P23458, 875-1153: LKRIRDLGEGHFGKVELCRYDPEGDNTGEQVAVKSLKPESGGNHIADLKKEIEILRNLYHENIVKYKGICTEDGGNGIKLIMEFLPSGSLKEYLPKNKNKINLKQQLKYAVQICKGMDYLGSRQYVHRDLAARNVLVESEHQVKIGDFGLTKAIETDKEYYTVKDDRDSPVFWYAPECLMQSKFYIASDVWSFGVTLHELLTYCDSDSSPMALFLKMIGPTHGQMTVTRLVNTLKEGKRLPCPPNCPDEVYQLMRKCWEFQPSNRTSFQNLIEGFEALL

Experiments:
[1] = target: isolated recombinant JAK2 kinase domain (Homo sapiens (Human), UniProt O60674); assay: JAK2 enzyme assay (Caliper LabChip, Ki); format: biochemical; conditions: 0.2 nM enzyme, ATP 25 μM
[2] = target: isolated recombinant JAK1 kinase domain (Homo sapiens (Human), UniProt P23458); assay: JAK1 enzyme assay (Caliper LabChip, Ki); format: biochemical; conditions: 1.5 nM enzyme, ATP 25 μM

| Compound | Ki [1] | Ki [2] |
| --- | --- | --- |
| CN1CCN(C(=O)Cn2cc(Nc3nc4c(N5C[C@H]6CC[C@@H](C5)[C@H]6OCc5ccncc5)cccn4n3)cn2)CC1 [Example 144, 1-(4-methylpiperazin-1-yl)-2-[4-[[8-[rac-(1S,5R)-8-(4-pyridylmethoxy)-3 - azabicyclo[3.2.1]octan-3-yl]-[1,2,4]triazolo[1,5-a]pyridin-2-yl]amino]pyrazol-1-yl]ethanone] | 1.3 nM | – |
| CN1CCN(C(=O)Cn2cc(Nc3nc4c(N5C[C@H]6CC[C@@H](C5)[C@H]6NCCC(F)(F)F)cccn4n3)cn2)CC1 [Example 145, 1-(4-methylpiperazin-1-yl)-2-(4-((8-((1R,5 S,8r)-8-((3,3,3-trifluoropropyl)amino)-3-azabicyclo[3.2.1]octan-3-yl)-[1,2,4]triazolo[1,5-a]pyridin-2-yl)amino)-1H-pyrazol-1-yl)ethanone] | 2.9 nM | – |
| Cc1ccc(CO[C@H]2[C@@H]3CC[C@H]2CN(c2cccn4nc(Nc5cnn(CC(=O)N6CCN(C)CC6)c5)nc24)C3)cn1 [Example 151, 1-(4-methylpiperazin-1-yl)-2-[4-[[8-[rac-(1S,5R)-8-[(6-methyl-3-pyridyl)methoxy]-3-azabicyclo[3.2.1]octan-3-yl]-[1,2,4]triazolo[1,5-a]pyridin-2-yl]amino]pyrazol-1-yl]ethanone] | 1.2 nM | – |
| COc1ccc(CO[C@H]2[C@@H]3CC[C@H]2CN(c2cccn4nc(Nc5cnn(CC(=O)N6CCN(C)CC6)c5)nc24)C3)cc1 [Example 163, 1-(4-methylpiperazin-1-yl)-2-[4-[[8-[rac-(1S,5R)-8-[(4-methoxyphenyl)methoxy]-3-azabicyclo[3.2.1]octan-3-yl]-[1,2,4]triazolo[1,5-a]pyridin-2-yl]amino]pyrazol-1-yl]ethanone] | 0.6 nM | 0.6 nM |
| CN1CCN(C(=O)Cn2cc(Nc3nc4c(N5C[C@H]6CC[C@@H](C5)[C@H]6OCc5cccc(C(=O)N(C)C)c5)cccn4n3)cn2)CC1 [Example 187, N,N-dimethyl-3-[[rac-(1S,5R)-3-[2-[[1-[2-(4-methylpiperazin-1-yl)-2-oxo-ethyl]pyrazol-4-yl]amino]-[1,2,4]triazolo[1,5-a]pyridin-8-yl]-3-azabicyclo[3.2.1]octan-8-yl]oxymethyl]benzamide] | 1.1 nM | 0.6 nM |
| CN1CCN(C(=O)Cn2cc(Nc3nc4c(N5C[C@H]6CC[C@@H](C5)[C@@H]6OCc5ccncc5)cccn4n3)cn2)CC1 [Example 189, 1-(4-methylpiperazin-1-yl)-2-(4-((8-((1R,5 S,8s)-8-(pyridin-4-ylmethoxy)-3-azabicyclo[3.2.1]octan-3-yl)-[1,2,4]triazolo[1,5-a]pyridin-2-yl)amino)-1H-pyrazol-1-yl)ethanone] | 0.3 nM | – |
